Publication PMC8272044, “5-Phenoxy Primaquine Analogs and the Tetraoxane Hybrid as Antimalarial Agents” (Molecules, 2021)

What was measured:
[1] = system: African green monkey kidney fibroblast (Vero cells); assay: Cytotoxicity by sulforhodamine B (SRB) colorimetric assay; assay type: cell-based; details: Vero CC50 / P. falciparum 3D7 IC50
Excerpt: (§1) A cytotoxicity test of selected analogs against African green monkey kidney fibroblast (Vero cells) was obtained from Bioassay Laboratory, BIOTEC, NSTDA, Thailand. They were maintained continuously in MEM/EBSS medium (Hyclone Laboratories Inc., South Logan, UT, USA), supplemented with 10% heated fetal bovine serum (GE Healthcare, PAA Laboratories GmbH, Pasching, Austria), 2.2 g/L Sodium bicarbonate (Emsure, Merck kGaA, Darmstadt, Germany), and 1% sodium pyruvate (Sigma). […] Then, the cells were fixed with 100 µL of 10% trichloroacetic acid (Sigma) at 4 °C for 45 min, washed, and dried at room temperature overnight. […] Finally, 200 µL of 10× Tris-base was added to each well to dissolve protein-bound dye. The OD was determined at a wavelength of 510 nm. The control media was used for overall background subtraction as 0% and untreated cells as 100% control without any cytotoxic effect. The IC50 value of each compound was determined from the dose–response curve.

[2] = as above; assay type: cell-based, African green monkey; details: African green monkey; Vero cells, 72 h, SRB, mean ± SD of three repeats
Excerpt: as §1

## COc1cc(NC(C)CCCN)c2ncccc2c1 (centres unmarked) [PQ, primaquine bisphosphate, reference compound]
[1]
  SI, selectivity index = CC50 on Vero cells / IC50 in the blood stage: >8.8
[2]
  CC50 at 72 h: > 100 µM
